The values that follow come from US12383539B2 (Cavion, Inc., priority 2018, dated 2025).

The subject of data set [1] is patients with essential tremor. Kind of data set: T-CALM: Clinical Global Impression of Improvement (CGI-I). In kind it is in vivo, human. The source says: The Clinical Global Impressions Scale (CGI) was developed for use in NIMH-sponsored clinical trials to provide a brief, stand-alone assessment of the clinician's view of a patient's global functioning before and after initiating a study medication (Guy (ed.), ECDEU Assessment Manual for Psychopharmacology. Rockville, MD: US Department of Health, Education, and Welfare Public Health Service Alcohol, Drug Abuse, and Mental Health Administration; 1976). The CGI is a summary measure that takes into account all available information, including knowledge of the patient's history, psychosocial circumstances, symptoms, behavior, and the impact of the symptoms on the patient's ability to function. The CGI has two forms—the CGI-Severity, which rates illness severity at baseline, and the CGI-Improvement, which rates change from baseline.
The CGI-I consists of a single 7-point rating of total improvement or change from baseline CGI-S, regardless of whether or not the change is due entirely to drug treatment.
Treatment success as measured by CGI-I was summarized using descriptive statistics.
The Clinical Global Impressions Scale (CGI) generates a clinician's perception of a patient's functioning prior to and after study medication (see, e.g., Guy, Assessment Manual for Psychopharmacology. Rockville, MD: Department of Health, Education, and Welfare Public Health Service Alcohol, Drug Abuse, and Mental Health Administration, 1976). The CGI overall score considers patient history, psychosocial situations, symptoms and behavior with respect to the ability to function. The CGI-Improvement (CGI-I) will involve a single 7-point rating of total improvement or change from baseline CGI-Severity (CGI-S). The clinician rater will select one response (from 1=very much improved to 7=very much worse) based upon the question, “Compared to your patient's condition at the onset of treatment, how much has your patient changed?”

Data set [2] has as its system patients with essential tremor. The experiment in a line: T-CALM: Patient Global Impression of Change (PGIC). In kind it is in vivo, human. Particulars: Day 15, total 39. The source says:
Global rating of change (GRC) scales were designed to quantify a patient's improvement or deterioration over time, usually either to determine the effect of an intervention or to chart the clinical course of a condition. GRC scales ask a patient to assess his or her current health status, recall that status at the beginning of treatment, and then calculate the difference between the two. The simplicity of GRC scales makes them easy to administer and applicable to a wide range of patients (see, e.g., Kamper et al., 2009 The Journal of Manual & Manipulative Therapy 17(3):163-170).
Treatment success as measured by PGIC was summarized using descriptive statistics.
The Patient Global Impression of Change (PGIC) will quantify a patient's impression of improvement or decline over time with respect to ET treatment (see, e.g., Guy, Assessment Manual for Psychopharmacology. Rockville, MD: Department of Health, Education, and Welfare Public Health Service Alcohol, Drug Abuse, and Mental Health Administration, 1976). The patient will use the PGIC scale to assess current health status versus initiation of treatment and calculate the difference. The 7-point scale will ask the question, “With respect to your ET, how would you describe yourself now compared to when you started taking the study drug?” The patient replies with one of 7 answers from very much worse to very much improved.

Data set [3] is described as follows: Healthy volunteer PK studies PN001/PN002 with IR capsules. The class given is in vivo, human.
Data set [4] concerns patients with essential tremor. The experiment in a line: T-CALM: TETRAS performance subscale (TETRAS-PS). Particulars: Day 15, N 39.

As for `CC(C)c1ccc(CC(=O)N[C@H](C)c2ccc(OCC(F)(F)F)cn2)cc1` [CX-8998], the “responders: improvement by CGI-I, number” value in data set [1] (Day 15, N 39) was 25; in data set [1] (Day 28, N 37), 24. For the same compound, in data set [1] (Day 28, total 37), the “CGI-I: Improved, number of subjects” value is recorded as 24. Also, the “PGIC: Improved, number of subjects” value in data set [2] is given as 26. In addition, the t1/2 was 18.4 h in data set [3] (Average of the single-dose studies (dose 16)); 14.3 h in data set [3] (PN001 Part 1, 16 mg, 1 dose); 14.8 h in data set [3] (PN001 Part 2, 18 mg, 1 dose); 26.1 h in data set [3] (PN002 Part 1, 18 mg, 1 dose); 18.4 h in data set [3] (PN002 Part 2, 12 mg, 1 dose); 14.2 h in data set [3] (PN002 Part 2, 12 mg, 7 doses). In data set [3] (PN002 Part 2, 12 mg, 7 doses), this compound registered an AUC0-24 of 6.1 µM·h. In data set [4], the “responders: improvement of at least 5 points by TETRAS-PS score, number” value was 12.
